Target: human liver microsomes (HLMs)
Conditions: read-out: Ki, HLMs; SN-38 substrate

Structure (SMILES): CS(=O)(=O)CCNCc1ccc(-c2ccc3ncnc(Nc4ccc(OCc5cccc(F)c5)c(Cl)c4)c3c2)o1 [Lapatinib, lapatinib]
- Ki: 1.6 ± 0.2 µM

Reference: paper PMC4672351, “Drug-Drug Interaction Potentials of Tyrosine Kinase Inhibitors via Inhibition of UDP-Glucuronosyltransferases” (Scientific Reports, 2015)
